{"sequences": {"note": "The chains behind the UniProt entries cited, without tags or fusion partners. Where a name states a change or a piece, a line headed by the entry shows the natural chain unless it says otherwise.", "UniProt P08254": "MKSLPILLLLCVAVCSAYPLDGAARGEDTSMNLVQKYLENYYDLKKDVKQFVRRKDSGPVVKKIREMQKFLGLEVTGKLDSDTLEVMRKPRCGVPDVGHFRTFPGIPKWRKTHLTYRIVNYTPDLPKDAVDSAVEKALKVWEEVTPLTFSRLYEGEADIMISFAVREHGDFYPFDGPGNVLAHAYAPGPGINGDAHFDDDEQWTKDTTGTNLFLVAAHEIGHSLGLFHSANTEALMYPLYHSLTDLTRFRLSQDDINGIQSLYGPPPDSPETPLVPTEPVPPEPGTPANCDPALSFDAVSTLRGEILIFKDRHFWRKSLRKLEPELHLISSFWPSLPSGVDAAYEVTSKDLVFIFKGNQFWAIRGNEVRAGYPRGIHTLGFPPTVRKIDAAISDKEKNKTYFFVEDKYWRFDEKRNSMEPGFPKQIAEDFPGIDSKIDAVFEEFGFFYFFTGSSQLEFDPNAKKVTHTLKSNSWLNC"}, "source": "ChEMBL document CHEMBL1128968", "about": "“Phosphinic acid inhibitors of matrix metalloproteinases” (Bioorg Med Chem Lett, 1996)", "molecular_target": "Stromelysin-1 (Homo sapiens, UniProt P08254)", "experiment": "Inhibition of stromelysin-1 (MMP-3).", "data": [{"compound": "CC(C)C[C@H](NC(=O)[C@H](CCc1ccccc1)CP(=O)(O)CCCCN1C(=O)c2ccccc2C1=O)C(=O)Nc1ccccc1", "values": [{"measurement": "Ki", "value": 1.4, "unit": "nM"}]}]}
